{
  "source": "patent US5278143A",
  "about": "“Prophylactic and therapeutic methods for treating interleukin-mediated edemas” (Trustees of Boston University, priority 1991, dated 1994)",
  "test_system": "IL-2 induced edema",
  "assay": "IL-2 induced vascular leak syndrome, organ wet to dry (W/D) weight ratios",
  "type": "in vivo, rats",
  "note": "Entries after “also recorded” stand apart in the source; their conditions may differ.",
  "data": [
    {"substance": "Interleukin-2: lymphokine which mediates the proliferation of T-cells; used to induce vascular leak syndrome", "values": [
      {"measurement": "Kidney wet to dry ratio (renal edema)", "setting": "10^5 U/l Interleukin-2 alone, FIG. 2", "result": "did not produce any significant renal edema"},
      {"measurement": "Spleen wet to dry ratio (splenic edema)", "setting": "10^5 U/ml Interleukin-2 alone, FIG. 1", "result": "did not produce any significant splenic edema"},
      {"measurement": "Liver wet to dry ratio (hepatic edema)", "setting": "10^5 U/ml Interleukin-2 alone, FIG. 3", "result": "did not produce any significant hepatic edema"},
      {"measurement": "Heart wet to dry weight ratio (cardiac edema)", "setting": "10^5 U/ml Interleukin-2 alone, FIG. 4", "result": "did not produce any significant cardiac edema"},
      {"measurement": "Lung wet to dry weight ratio (pulmonary edema)", "setting": "10^5 U/ml Interleukin-2 alone, FIG. 5", "result": "did not produce any significant pulmonary edema"},
      {"measurement": "Spleen wet to dry ratio (splenic edema)", "setting": "10^6 U/ml IL-2, FIG. 1, listed as IL-2", "result": "failed to induce splenic edema; also recorded: No significant changes over controls"},
      {"measurement": "Kidney wet to dry ratio (renal edema)", "setting": "10^6 U/ml IL-2, FIG. 2, listed as IL-2", "result": "produced a significant increase in edema; also recorded: produces edema"},
      {"measurement": "Liver wet to dry ratio (hepatic edema)", "setting": "10^6 U/ml IL-2, FIG. 3, listed as IL-2", "result": "produced no significant increase in edema; also recorded: No significant changes over controls"},
      {"measurement": "Lung wet to dry weight ratio (pulmonary edema)", "setting": "10^6 U/ml IL-2, FIG. 5, listed as IL-2", "result": "produced a significant (p<0.01) increase in edema; also recorded: produces edema"},
      {"measurement": "Heart wet to dry weight ratio (cardiac edema)", "setting": "10^6 U/mml IL-2, FIG. 4, listed as IL-2", "result": "produced a significant (p<0.01) increase in edema; also recorded: produces edema"}
    ]}
  ]
}
